This is an account of results in publication PMC2994877, “A Full Pharmacological Analysis of the Three Turkey β-Adrenoceptors and Comparison with the Human β-Adrenoceptors” (PLoS ONE, 2010).

Protein sequences, listed by entry. Tags and fused reporters are not part of them.
UniProt A0A803YLI8, entry or part of it: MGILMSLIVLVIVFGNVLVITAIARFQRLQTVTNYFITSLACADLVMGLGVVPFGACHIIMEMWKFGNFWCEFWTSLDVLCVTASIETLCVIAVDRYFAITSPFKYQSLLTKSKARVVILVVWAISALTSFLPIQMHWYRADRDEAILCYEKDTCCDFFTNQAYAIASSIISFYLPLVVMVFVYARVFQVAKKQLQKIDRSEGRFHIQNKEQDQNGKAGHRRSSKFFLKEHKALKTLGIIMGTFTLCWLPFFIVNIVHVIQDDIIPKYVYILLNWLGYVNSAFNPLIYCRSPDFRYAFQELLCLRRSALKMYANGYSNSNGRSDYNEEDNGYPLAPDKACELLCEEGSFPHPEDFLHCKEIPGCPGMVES

What is called Kd is the constant that tells how readily two partners part at equilibrium.

The assay deals with turkey β3C-adrenoceptor (tβ3C) (Meleagris gallopavo, UniProt A0A803YLI8). Nature of the assay: 3H-CGP12177 whole cell binding, CHO tβ3C cells.

As to `COc1ccccc1OCCNCC(O)COc1cccc2[nH]c3ccccc3c12` (stereo not shown) [Carvedilol], the affinity, expressed as Kd, was 0.263 nM.
